Here are results for 26 compounds from PubChem BioAssay AID624304 (Sanford-Burnham Center for Chemical Genomics, 2012).

Only a part is listed here, and it is no random draw. Activity calls are given as the source filed them.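 How the source made its calls: active means interference check ratio from 0.5 to 1.5 plus GFP to RFP signal ratio inhibition reaching or exceeding a fixed threshold (cut at about 30% in these data, passing the limit was not always enough); inactive means the rest.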

A short description of this experiment: gst-4 reporter inhibition in live C. elegans – whole organism, uHTS, GFP/RFP fluorescence ratio, strain VP596, SKN-1 inhibitor project, primary screen (AID 624304). As to conditions: C. elegans VP596 Pgst-4::GFP/RFP ratio, acrylamide-induced, 24 h; at 21.8 µM; stronger effect = higher value.
The term inhibition denotes the relative decrease from the control value, in per cent. On to `CSc1ccc(C(=O)NCC2(N3CCOCC3)CCCCC2)cc1`, for which the inhibition was inactive: 10.3%.
As for `O=C(NCC1(N2CCCCC2)CCCCC1)c1cncc(Br)c1`, the figure is inactive: 18.2%.
As for `CN1CCC(Nc2cccc(F)c2)CC1`, the figure is inactive: 4.41%; as for `COc1ccc(C(c2nnnn2C2CCCC2)N2CCC(n3c(=O)[nH]c4ccccc43)CC2)cc1` (stereo unspecified), inactive: 9.75%; as for `CCCOc1ccc(C(=O)NCC2(N(C)C)CCCCC2)cc1OC`, inactive: 8.29%.
The figure for `Cc1ccc(C(=O)NCC2(N(C)C)CCCCC2)o1` is inactive: 14.5%.
On to `CCCCn1nnnc1C(c1ccccc1OC(F)(F)F)N1CCC(n2c(=O)[nH]c3ccccc32)CC1` (stereo unspecified), for which the inhibition was inactive: 4.8%.
Turning to `CC(C)c1ccc(NC2CCN(C(=O)OC(C)(C)C)CC2)cc1`, the inhibition is inactive: 4.05%.
As for `CN(C)c1cccc(C(=O)NCC2(N3CCCCC3)CCCCC2)c1`, the figure is inactive: -0.915%.
The figure for `COc1ccc(CN(CCCl)CCCl)cc1Cl` is inactive: -0.0863%; for `O=C(NCC1(N2CCOCC2)CCCCC1)c1cc(F)c(F)cc1Cl` it is inactive: -4.58%; for `CCC(c1nnnn1C(C)(C)C)N1CCC(n2c(=O)[nH]c3ccccc32)CC1` (stereo unspecified) it is inactive: 7.93%.
The figure for `COc1cc(OC)c(C(=O)NCC2(N(C)C)CCCCC2)cc1OC` is inactive: 21.6%.
On to `CCCCn1nnnc1C(c1ccnc2ccccc12)N1CCC(n2c(=O)[nH]c3ccccc32)CC1` (stereo unspecified), for which the inhibition was inactive: 11.5%.
The figure for `Cc1cc(C)cc(N(C(=O)c2ccccc2)C2CCN(C(=O)OC(C)(C)C)CC2)c1` is inactive: 29.1%; for `O=c1[nH]c2ccccc2n1C1CCN(C(c2ccccc2OC(F)(F)F)c2nnnn2C2CCCCC2)CC1` (stereo unspecified) it is inactive: 12.7%.
The figure for `O=C(NCC1(N2CCCCC2)CCCCC1)c1ccc(Cl)nc1` is inactive: 10.6%; for `O=C(NCC1(N2CCOCC2)CCCCC1)c1cc2ccccc2o1` it is inactive: 10.4%; for `COc1ccc(Cl)cc1C(=O)NCC1(N2CCOCC2)CCCCC1` it is inactive: 1.38%.
As for `O=c1[nH]c2ccccc2n1C1CCN(C(c2cc3ccccc3o2)c2nnnn2C2CCCCC2)CC1` (stereo unspecified), the figure is inactive: -10.6%; as for `O=C(OC1CN2CCC1CC2)C1c2ccccc2Oc2ccccc21` (stereo unspecified), inactive: -3.42%.
As to `O=C(NCC1(N2CCCCC2)CCCCC1)c1ccc(Cl)s1`, the inhibition was inactive: 16.2%.
The figure for `N#CC1(Nc2ccccc2)CCN(Cc2ccccc2)CC1` is inactive: -0.857%; for `CCCCn1nnnc1C(c1ccc(OC)cc1)N1CCC(n2c(=O)[nH]c3ccccc32)CC1` (stereo unspecified) it is inactive: 1.73%; for `CCOC(=O)N1CCC(Nc2ccc(OC)cc2)CC1` it is inactive: 5.46%.
As for `CCC(c1nnnn1C1CCCC1)N1CCC(n2c(=O)[nH]c3ccccc32)CC1` (stereo unspecified), the figure is inactive: -13.9%.
